Data reported in ChEMBL document CHEMBL3272106, “Synthesis and narcotic agonist-antagonist evaluation of some 2,6-methano-3-benzazocine-11 propanols. Analogues of the ring C bridged oripavine-7-mehtanols” (1977).

System: Mus musculus
Experiment: Narcotic agonist activity in sc dosed albino mouse assessed as protection against acetylcholine-induced writhing administered 20 mins prior to acetylcholine challenge measured for 2 mins
Assay type: functional

CC(C)(C)C(C)(O)CC[C@]1(C)[C@H]2Cc3ccc(O)cc3[C@@]1(C)CCN2CC1CC1.CS(=O)(=O)O (stereo partly specified)
ED50: 8.9 mg/kg and > 25 mg/kg

“And” between values parts separate entries of the source, which are not always exact repeats. Equal entries are not always repeated.
